These are literature values, as cited in article PMC5067215.

By UniProt entry, the sequences of proteins in these tests, tags left out. Residues count along the entry.
UniProt P04233, 73-296: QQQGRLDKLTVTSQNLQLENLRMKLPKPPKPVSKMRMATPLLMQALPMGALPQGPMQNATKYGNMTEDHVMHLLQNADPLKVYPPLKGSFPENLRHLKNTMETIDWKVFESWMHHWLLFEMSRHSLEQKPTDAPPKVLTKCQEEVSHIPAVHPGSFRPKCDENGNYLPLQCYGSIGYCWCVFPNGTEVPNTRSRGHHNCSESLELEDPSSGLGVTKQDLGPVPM
UniProt P14174, 2-115: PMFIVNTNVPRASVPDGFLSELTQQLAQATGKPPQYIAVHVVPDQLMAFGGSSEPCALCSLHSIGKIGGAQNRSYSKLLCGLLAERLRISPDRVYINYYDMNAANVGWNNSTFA

As usually defined, the Kd is the equilibrium constant for the complex coming apart.

The data set has as its target CD74 (Homo sapiens) (UniProt P04233).

In the case of MIF (from UniProt P14174), the Kd is 1.4 nM.
